Assay results as given in ChEMBL document CHEMBL1811872, “Tryptophan 2,3-dioxygenase (TDO) inhibitors. 3-(2-(pyridyl)ethenyl)indoles as potential anticancer immunomodulators” (J Med Chem, 2011).

Sequences of proteins named here, by UniProt entry; tags and fusion partners are left off. A change or cut given only in a name is not applied to a line headed by its entry.
UniProt P48775: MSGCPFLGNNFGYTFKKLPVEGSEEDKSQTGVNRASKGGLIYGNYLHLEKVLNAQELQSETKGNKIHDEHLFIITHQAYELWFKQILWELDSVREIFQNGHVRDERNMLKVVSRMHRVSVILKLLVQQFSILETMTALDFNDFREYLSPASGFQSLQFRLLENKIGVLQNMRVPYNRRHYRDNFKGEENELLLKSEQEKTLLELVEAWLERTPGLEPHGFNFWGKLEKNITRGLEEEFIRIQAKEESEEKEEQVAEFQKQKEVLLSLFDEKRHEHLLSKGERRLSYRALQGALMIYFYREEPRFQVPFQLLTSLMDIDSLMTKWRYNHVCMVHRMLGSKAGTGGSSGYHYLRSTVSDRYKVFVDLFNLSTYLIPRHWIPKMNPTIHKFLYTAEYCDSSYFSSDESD

Target: Tryptophan 2,3-dioxygenase (Homo sapiens, UniProt P48775)
Assay: Competitive inhibition of human recombinant TDO expressed in Escherichia coli BL21 using L-tryptophan as substrate by measuring conversion of N-formylkynurenine into kynurenine after 30 mins by Michaelis-Menten steady state analysis

Q: For `Fc1ccc2c(/C=C/c3cccnc3)c[nH]c2c1`, which Ki is on record?
A: 880 nM
